Here are results for three substances from patent publication US10538545B2 (priority 2017, dated 2020).

Series [1] concerns Tg (kdr:EGFP) zebrafish embryos. Nature of the series: Analysis of vasodilation in zebrafish embryos (dorsal aorta diameter). The format is in vivo. The settings on record: 3-dpf KDR zebrafish, 30 min; 50 μM DNIC-1b, 50 μM DNIC-2a, 200 μM SNP; control 21.2 ± 0.2.
The nature of series [2]: Time-dependent decomposition of DNIC-1 in buffer monitored by UV-vis. The settings on record: for half-life of decomposition: aerobic 25 mM KPi buffer, pH 7.0, pseudo-first order kinetics assumed.
Series [3] in a line: In vitro release of NO from DNIC-1 determined by Griess reagent. The settings on record: 15 μM DNIC, 25 mM KPi buffer pH 7.0, aerobic, 48 hours. For orientation: Griess reagent forms a coloured azo dye with nitrite.
Series [4] relates to AB (wild type) zebrafish embryos. As to the kind of experiment: Analysis of myocardial contractility and cardiac output in zebrafish embryos. It counts as in vivo.
A further series relates to WT-AB zebrafish embryos. Nature of the series: Toxicity test of DNIC in zebrafish embryos. The settings on record: 50 μM DNIC, 200 μM SNP; for acute toxicity on zebrafish embryo: 3-dpf zebrafish, 30 minutes; for Survival rate of zebrafish, Day 3 / Survival rate of zebrafish, Day 4 / Survival rate of zebrafish, Day 5: incubated 30 minutes on day 3, n = 300.
For series [5], the system named is C. elegans (N2). As to the kind of experiment: Analysis of lifespan in C. elegans. The note with it: 10 μM for 15 minutes on Day 1, 4 and 7, n=200.
Series [6] deals with soluble guanylate cyclase (sGC). Nature of the series: Activation of sGC in CX3553 (str-1::GFP) worms. It counts as in vivo, C. elegans. The note with it: 400 μM for 30 minutes.
Series [7] concerns C. elegans (N2). Nature of the series: In vivo release of NO from DNIC-1a in C. elegans (FA-OMe fluorescence). The settings on record: 500 μM for 15 minutes, then FA-OMe 0.5 hour.
Series [8] deals with C. elegans (N2). Nature of the series: Uptake and export of DNIC-1a in C. elegans (Fe content by ICP-MS). The settings on record: N2 worms incubated with 500 μM for 15 minutes; untreated 46.8±3.6.
In a further series the test system is C. elegans. As to the kind of experiment: Analysis of cell senescence in C. elegans (SA-βgal activity, X-gal). The settings on record: 10 μM for 15 minutes on Day 1, 4 and 7; 13-day-old worms.

For the substance [(NO)2Fe(μ-SEtCOOH)2Fe(NO)2], the “Vessel Diameter (dorsal aorta diameter)” value in series [1] worked out at 23.0±1.1 μm. For the same substance, the half-life of decomposition in series [2] was 25.9 ± 0.4 h. Besides, the “Total amount of NO released determined by Griess reagent” value (from here on “Total amount of NO released determined”) in series [3] was determined as 26.1 ± 0.1 µM. In [4] (50 μM DNIC-1b, 200 μM SNP, 30 minutes), the “change of short-axis diameter of the heart and ventricular volume at end diastole (ED)” value is “significant increase”. Besides, the “Fractional Shortening” value in series [4] (30 min, 50 μM DNIC-1b, 50 μM DNIC-2a, 200 μM SNP, 5 μg/mL epinephrine, control 0.14 ± 0.02) was determined as 0.22 ± 0.03. Also, the “Short Axis Diameter ED(Dd)” value in series [4] (end diastole, 30 min, 50 μM DNIC-1b, 50 μM DNIC-2a, 200 μM SNP, 5 μg/mL epinephrine, control 82.2 ± 2.0) is given as 92.3 ± 2.9 μm. Besides, the “Ventricular Volume ED” value in series [4] (end diastole, prolate spheroid assumed, same treatments, control 0.55 ± 0.02) was 0.66 ± 0.05 nL. Moreover, in series [4] (end systole, 30 min, 50 μM DNIC-1b, 50 μM DNIC-2a, 200 μM SNP, 5 μg/mL epinephrine, control 70.4 ± 2.5), the “Short Axis Diameter ES(Ds)” value is 72.3 ± 3.1 μm. For the same substance, the “Ventricular Volume ES” value in series [4] (end systole, prolate spheroid assumed, same treatments, control 0.33 ± 0.02) is recorded as 0.32 ± 0.05 nL. In [4] (heart rate × (ED volume − ES volume), same treatments, control 25.9 ± 4.5), the “Cardiac Output” value was found to be 45.8 ± 5.1 nL/min. For the same substance, the “Ventricular Volume ED-ES” value in series [4] (same treatments, control 0.21 ± 0.02) is 0.34 ± 0.05 nL. For the same substance, the “Heart Rate” value in [4] (same treatments, control 124 ± 4) is on record as 133 ± 5 bpm. Further, in the series with WT-AB zebrafish embryos, the “acute toxicity on zebrafish embryo” value is “no acute toxicity”; the “Survival rate of zebrafish, Day 3” value is given as 100 ± 0.0%; the “Survival rate of zebrafish, Day 4” value worked out at 100 ± 0.0%; the “Survival rate of zebrafish, Day 5” value is reported as 100 ± 0.0%.
In the series with C. elegans (N2) [5] (control 16.9±0.5 days), [(NO)2Fe(μ-SEtOH)2Fe(NO)2] displayed a lifespan of 18.7 ± 0.4 days. Besides, the extension of lifespan in the series on C. elegans (N2) [5] (vs 0 μM) worked out at 10.7%. Moreover, the “increase of the GFP fluorescence signal in CX3553 worms” value in series [6] is reported as “about 5.7 fold”. The same substance gave a half-life of decomposition in [2] of 27.4 ± 0.5 h. For the same substance, in [2] (anaerobic condition), the “stability under anaerobic condition” value was “stability”. Besides, the “Total amount of NO released determined” value in series [3] was 30.3 ± 1.0 µM. Moreover, the “NO release in C. elegans (FA-OMe fluorescence)” value with C. elegans (N2) [7] is “released ●NO in the intestine of C. elegans”. In addition, in the series with WT-AB zebrafish embryos, the “acute toxicity on zebrafish embryo” value was “dramatic death of 5-dpf zebrafish”; the “Survival rate of zebrafish, Day 3” value amounted to 100 ± 0.0%; the “Survival rate of zebrafish, Day 4” value is given as 86.4 ± 10.5%; the “Survival rate of zebrafish, Day 5” value is reported as 62.3 ± 19.3%. Also, the “total amount of Fe right after treatment” value in the series with C. elegans (N2) [8] is listed as 190.7±39.4 ng per 100 worms. For the same substance, the “cell senescence (SA-βgal activity)” value with C. elegans is “significantly delayed the cell senescence”.
For the substance [(NO)2Fe(μ-SPhCOOH)2Fe(NO)2], in series [2], the half-life of decomposition is 0.6 ± 0.1 h. The “Total amount of NO released determined” value in [3] worked out at 24.4 ± 0.2 µM.
